Permeability data for macrocyclic peptides

Values of Townsend et al. 2020, doi:10.26434/chemrxiv.13335941.v1, as listed in CycPeptMPDB.

PAMPA is the parallel artificial membrane permeability assay, which has no cells and reads passive diffusion.
Values are log10 P with P in cm/s, so -5 is more permeable than -7.

structure (SMILES) | PAMPA (log10 cm/s)
CC(C)C[C@@H]1C(=O)N[C@@H](Cc2ccccc2)C(=O)N(C)[C@@H](C)C(=O)N[C@H](CC(C)C)C(=O)N[C@H](CC(C)C)C(=O)N2CCC[C@H]2C(=O)N1C | -5.19
CC(C)C[C@@H]1NC(=O)[C@H](C)N(C)C(=O)[C@H](Cc2ccccc2)NC(=O)[C@@H](CC(C)C)N(C)C(=O)[C@@H]2CCCN2C(=O)[C@H](CC(C)C)NC1=O | -5.11
CC(C)C[C@@H]1NC(=O)[C@@H](C)N(C)C(=O)[C@H]2CCCN2C(=O)[C@H](Cc2ccccc2)NC(=O)[C@H](CC(C)C)N(C)C(=O)[C@@H]2CCCN2C(=O)[C@H](CC(C)C)NC1=O | -5.45
CC(C)C[C@@H]1C(=O)N[C@H](CC(C)C)C(=O)N2CCC[C@@H]2C(=O)N(C)[C@@H](CC(C)C)C(=O)N[C@@H](Cc2ccccc2)C(=O)N2CCC[C@H]2C(=O)N[C@@H](Cc2ccccc2)CC(=O)N1C | -5.45
CCCN1CC(=O)N[C@@H](CC(C)C)C(=O)N[C@H](CC(C)C)C(=O)N2CCC[C@@H]2C(=O)N(C)[C@@H](CC(C)C)C(=O)N[C@@H](Cc2ccccc2)C(=O)N2CCC[C@H]2C1=O | -5.21
CC(C)C[C@@H]1C(=O)N[C@@H](Cc2ccccc2)C(=O)N(C)[C@@H](C)C(=O)N[C@H](CC(C)C)C(=O)N[C@@H](Cc2ccccc2)CC(=O)N2CCC[C@@H]2C(=O)N1C | -5.53
CC(C)C[C@H]1NC(=O)C[C@H](Cc2ccccc2)NC(=O)[C@H]2CCCN2C(=O)[C@H](Cc2ccccc2)NC(=O)CN(Cc2ccccc2)C(=O)[C@@H]2CCCN2C(=O)[C@H](CC(C)C)N(C)C1=O | -5.66
CC(C)C[C@H]1NC(=O)[C@H](C)NC(=O)[C@H](Cc2ccccc2)NC(=O)[C@@H](CC(C)C)NC(=O)[C@@H]2CCCN2C(=O)C[C@H](Cc2ccccc2)NC1=O | -6.54
CC(C)C[C@H]1NC(=O)[C@@H]2CCCN2C(=O)CN(Cc2ccccc2)C(=O)[C@H](CC(C)C)N(C)C(=O)[C@H](C)NC(=O)[C@H]2CCCN2C(=O)[C@H](Cc2ccccc2)NC1=O | -6.04
CC(C)C[C@H]1C(=O)N(Cc2ccccc2)CC(=O)N2CCC[C@H]2C(=O)N(Cc2ccccc2)CC(=O)N[C@@H](Cc2ccccc2)C(=O)N(C)[C@H](C)C(=O)N1C | -5.30
CC(C)C[C@@H]1NC(=O)[C@H](CC(C)C)N(C)C(=O)[C@H](C)N(C)C(=O)[C@H](Cc2ccccc2)NC(=O)[C@@H](CC(C)C)NC(=O)[C@H]2CCCN2C1=O | -5.34
CCCN1CC(=O)N[C@H](CC(C)C)C(=O)N(C)[C@@H](CC(C)C)C(=O)N2CCC[C@@H]2C(=O)N(C)[C@@H](CC(C)C)C(=O)N[C@@H](Cc2ccccc2)C(=O)N2CCC[C@H]2C1=O | -5.07
CC(C)C[C@@H]1C(=O)N[C@@H](Cc2ccccc2)CC(=O)N2CCC[C@H]2C(=O)N(C)[C@@H](CC(C)C)C(=O)N[C@@H](Cc2ccccc2)C(=O)N2CCC[C@@H]2C(=O)N[C@@H](Cc2ccccc2)CC(=O)N1C | -5.45
CC(C)C[C@@H]1C(=O)N[C@@H](Cc2ccccc2)CC(=O)N2CCC[C@H]2C(=O)N(C)[C@H](CC(C)C)C(=O)N[C@@H](Cc2ccccc2)C(=O)N2CCC[C@@H]2C(=O)N[C@H](C)C(=O)N1C | -5.64
CC(C)C[C@H]1C(=O)N2CCC[C@H]2C(=O)N(C)[C@@H](CC(C)C)C(=O)N[C@@H](Cc2ccccc2)C(=O)N[C@H](C)C(=O)N(Cc2ccccc2)CC(=O)N1C | -5.44
CC(C)C[C@@H]1NC(=O)[C@@H]2CCCN2C(=O)[C@H](CC(C)C)NC(=O)[C@H](CC(C)C)N(C)C(=O)[C@H](C)N(C)C(=O)[C@H](Cc2ccccc2)NC1=O | -5.97

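The data file gives no further conditions (lipid, pH, time, direction or concentration), and values from different papers need not be comparable. Other peptides of the study may be missing here. Peptides that the database sets to -10, its floor, are left out.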